What was measured:
[1] = Peripheral blood pharmacokinetics after single intravenous administration to cynomolgus monkey; assay type: in vivo, cynomolgus monkey (Macaca fascicularis); details: 5 mg/kg, one male cynomolgus monkey
[2] = Migration to brain: concentration in brain tissue of hTfR knock-in mice after intravenous administration; assay type: in vivo, hTfR-KI mouse; details: 5 mg/kg intravenous, male hTfR-KI mice
Experimental: Next, whether the hTfR affinity peptide-trastuzumabs 1 to 5 pass through the BBB and migrate into the brain when injected intravenously, was evaluated using hTfR knock-in mouse (hTfR-KI mouse) in which the gene encoding the extracellular region of mouse transferrin receptor had been replaced with a gene encoding the extracellular region of the human transferrin receptor gene. The hTfR-KI mouse was generally produced by the following method.
A DNA fragment having a nucleotide sequence set forth in SEQ ID NO:51, in which a neomycin resistance gene flanked by loxP sequences was disposed on the 3′ side of a cDNA encoding a chimeric hTfR whose intracellular region had the amino acid sequence of mouse hTfR and whose extracellular region had the amino acid sequence of human hTfR, was chemically synthesized. […] White F1 mice were selected, DNA extracted from the tail tissue was analyzed, and a mouse in which the mouse transferrin receptor gene had been replaced with chimeric hTfR on the chromosome was designated as an hTfR-KI mouse. […]
The brain tissue for concentration measurement was homogenized in T-PER (Thermo Fisher Scientific, Inc.) containing Protease Inhibitor Cocktail (Sigma-Aldrich Co., LLC). […] The amounts of the hTfR affinity peptide-trastuzumab and trastumab contained in the homogenate supernatant were measured by the following method. […]

[3] = Quantification in brain tissue of cynomolgus monkeys 8 hours after administration; assay type: in vivo, cynomolgus monkey (Macaca fascicularis); details: 8 hours after 5 mg/kg intravenous
Experimental: (§1) The brain tissue for concentration measurement was homogenized in T-PER (Thermo Fisher Scientific, Inc.) containing Protease Inhibitor Cocktail (Sigma-Aldrich Co., LLC). The obtained homogenate was centrifuged (3000 g, 5 min), and the supernatant was collected. The amounts of the hTfR affinity peptide-trastuzumab and trastumab contained in the homogenate supernatant were measured by the following method. First, equal amounts of SULFO-Goat Anti Human IgG (h+l) (Bethyl Laboratories, Inc.) (0.5 μg/mL) and Goat Anti Human Kappa Light chain-biotin (IBL) (0.5 μg/mL) were mixed, the mixture was dispensed on a sampling plate in 25-μL portions, and the sampling plate was shaken with a microplate mixer at room temperature for 1 hour to prepare reaction solutions. […] Next, 150 μL each of Read buffer T (Meso Scale Diagnostics, LLC) was added to each well, and the amount of luminescence from each well was measured using Sector™ Imager 6000 reader. The amount of the hTfR affinity peptide-trastuzumab contained per gram weight (wet weight) of brain (concentration of hTfR affinity peptide-trastuzumab in brain tissue) was calculated by creating a calibration curve from the measured values of standard samples of the hTfR affinity peptide-trastuzumab at known concentrations, and interpolating the measured value of each specimen into this calibration curve. […]

[4] = Immunohistochemical staining of cerebellar tissue of hTfR knock-in mice; assay type: in vivo, hTfR-KI mouse; details: both 6 hours and 24 hours after the administration; 5 mg/kg intravenous
Experimental: Each of purified products of the hTfR affinity peptide-trastuzumabs 1 to 5 obtained in Example 9 was intravenously administered to two male hTfR-KI mice at a dose of 5 mg/kg. […] After 6 and 24 hours from the administration, the mice were euthanized and subjected to whole body perfusion with physiological saline, and the brains (portion including the cerebrum and the cerebellum) were collected. The weights (wet weight) of the excised brains were measured, subsequently each of the brains was divided in the sagittal plane, and one half of the brain was used for measuring the concentration of the hTfR affinity peptide-trastuzumabs 1 to 5 in the tissue, while the other half was subjected to immunohistochemical staining.
Immunohistochemical staining of the hTfR affinity peptide in the brain tissue was generally performed by the following procedure. The brain tissue collected for immunohistochemical staining was immersed in OCT Compound (Sakura Finetek Japan Co., Ltd.) and rapidly frozen to −80° C. using Histo-Tek PINO (Sakura Finetek Japan Co., Ltd.), and a frozen block of tissue was produced. […] Next, Fluorescein Amplification Working Solution included in TSA-Plus Fluorescence Kit (PerkinElmer, Inc.) was dropped onto the tissue slice and was allowed to react for 15 minutes in the dark. […]

[5] = Quantification in various organs of cynomolgus monkeys 8 hours after administration; assay type: in vivo, cynomolgus monkey (Macaca fascicularis); details: 8 hours after 5 mg/kg intravenous
Experimental: as §1

With “Trastuzumab: antibody medicine exerting an anti-tumor effect by specifically binding to HER2” the t½β [1] was 2.27 h, the “Concentration in brain tissue” value ([2]; after 6 hours from administration) was 0.07 μg/g · tissue and the “Concentration in brain tissue” value ([2]; after 24 hours from administration) was 0.04 μg/g · tissue. The “concentration in cerebral cortex, cerebellum, hippocampus, midbrain, pons, medulla oblongata, caudate nucleus, putamen, globus pallidus, and thalamus” value [3] was “hardly detected”, the concentration in retina [3] was “detected at almost the same concentration” and the “immunohistochemical staining in cerebellar tissue / brain parenchyma” value [4] was “no staining was recognized”. For the same substance, the concentration in heart [5] was “detected at high concentrations”.

— patent US20260285942A1, “Peptide Having Affinity for Human Transferrin Receptor” (JCR PHARMACEUTICALS CO., LTD., priority 2021, published 2026)
